According to patent publication US20240180849A1, “IMMUNOFUNCTIONAL CARRIER, METHODS OF USES, AND COMPOSITION MATTERS AS AN ANTITUMOR IMMUNOTHERAPY” (priority 2021, published 2024):

Key:
[1] = aqueous medium
[2] = system: CT26 tumor; conditions: Cy7-labeled, intratumoral
[3] = In vivo toxicity (death) after intratumoral injection; conditions: 2.74 mg/mouse

For “Polyethyleneimine-Lithocholic Acid Conjugate [2E′]”, the critical assembly concentration [1] was 2.6 µg/mL, the “disappearance from the injection site” value [2] was “disappeared from the injection site more slowly than PEI” and the “mice that died in 48 h” value [3] was 0/7.
